Shown are actives, neighbours in structure and some others; about 3.7% of the full set was active somewhere.
Nrf2 ARE act – activators of Nrf2 (ARE) signaling | Potency, µM (series often up to 46.1 µM), actives largely listed as activators | AREc32 ARE-luciferase reporter (MCF7-derived line), luminescence, 24 h | 0.31% of 410,000 active; also: nearly all actives have a fitted effect of over 65% in size
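Steps: seed AREc32_Fluc cells (1000/well, 5% FBS OPTI-MEM); incubate overnight at 37 deg C; add 23 nL compound; incubate 24 hr; add Steady-Glo; hold 30 min RT; read luminescence.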
IL-2 act – activators of IL-2; 0.065% of 360,000 active; IL-2 activation reporter assay, cell-based qHTS; stimulated with anti-CD3/CD4/CD28 beads; in transgenic mouse T cells; AID 652025; activation, % (series mostly up to about 46 µM); in the data active = activation above about 50%; inconclusive = mostly about 30% to 49%
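Quantitative HTS in unstimulated transgenic mouse T cells, with memory T cells as non-tolerant control and PMA/ionomycin as tolerance-bypass control. Compound pretreatment lasted 60 minutes before 18 h bead stimulation; EGFP/DsRed fluorescence read.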
miR-21 reporter – miR-21 reporter, rising signal; HeLa miR-21 FLuc reporter, luciferase, 48 h; Potency, µM (top dose mostly 38.3 µM); 340,000 tested, under 10 active; active = well fitted rising curve with a large enough effect; inconclusive = small, poorly fitted or top-dose-only effect; inactive = no such curve, though single readings can be large or run the other way;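 further: miR-21 action dims this reporter so a rising signal means less miR-21 action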
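Compounds were titrated across several concentrations (up to approximately 40 uM) and incubated 48 hours with HeLa miR-21-FLuc reporter cells (miR-21 target sequence downstream of FLuc, endogenous miR-21). Readout was firefly luciferase luminescence after lytic detection reagent.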
ClpP mod – qHTS Assay for Activators of ClpP; ATP-dependent Clp protease proteolytic subunit (Bacillus subtilis (strain 168)), P80244; purified B. subtilis ClpP, FRET peptide cleavage, 20 min; Potency, µM (top dose mostly 57.5 µM); 1.9% of 340,000 active; active = well fitted falling curve with a large enough effect; inconclusive = small, poorly fitted or top-dose-only effect; inactive = no such curve, though single readings can be large or run the other way; also: the source files actives as falling curves though it sought activators and does not explain the sign; nearly all actives have a fitted effect of over 65% in size
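Buffer: 100 mM Tris/HCl pH8, 100 mM KCl, 0.05% low protease BSA, 2.5% glycerol, 0.01% Tween-20. ClpP 10 microg/mL final; 20 min RT; delta FRET normalized to ADEP and DMSO controls.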
Nrf2 inh – inhibitors of Nrf2 signaling; AID 504444; A549 ARE-Fluc reporter, luciferase luminescence, 18-24 h; Potency, µM (highest dose often 46 µM), actives largely listed as inhibitors; 2.1% of 360,000 active; also: nearly all actives have a fitted effect of over 60% in size
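Nrf2 function is reported as luminescence of an ARE-controlled luciferase in A549 cells. Compounds were tested at several concentrations, and a CellTiter-Fluor read on the same wells flagged cytotoxicity.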
A549 tox – kills or reduces viability of A549 cells in Nrf2 counter-screen; A549 ARE-Fluc cells, CellTiter-Fluor viability, 18-24 h; Potency, µM (top dose mostly 46 µM), usual class: inhibitors; 0.16% of 390,000 active; AID 504648
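Cytotoxicity counterscreen: CellTiter-Fluor fluorescence was measured in A549 ARE_Fluc cells after 18-24 h of compound exposure in a concentration series. The subsequent BugLite luminescent read reports ARE-luciferase activity.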
Each line names hits and unclear results; the compound was inactive in the other large screens. Unless noted, calls follow the shape of the dose curve; as a rule, active = well fitted curve in the direction sought with a large enough effect; inconclusive = small, poorly fitted or top-dose-only effect, or another doubt; inactive = no such curve, though single readings can be large; an effect the other way counts as inactive or inconclusive.

Protein sequences, listed by entry. Tags and fused reporters are not part of them.
ATP-dependent Clp protease proteolytic subunit (Bacillus subtilis (strain 168)), P80244, UniProt P80244, whole entry, looked up: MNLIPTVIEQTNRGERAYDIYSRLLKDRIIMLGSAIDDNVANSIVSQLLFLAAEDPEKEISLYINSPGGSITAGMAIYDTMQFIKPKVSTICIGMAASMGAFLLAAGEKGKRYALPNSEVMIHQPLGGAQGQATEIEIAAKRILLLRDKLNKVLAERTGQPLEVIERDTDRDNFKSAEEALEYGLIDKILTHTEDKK

Cc1cc(C)c(NC(=O)CN2C(=O)CCn3nc(-c4cccn4C)cc32)c(C)c1	none (no result: IL-2 act, Nrf2 inh)
CC(=O)Nc1sc(C)c(C)c1C(=O)OCC(=O)N(C)C1CCS(=O)(=O)C1 (stereo not drawn)	ClpP mod 35.5µM
CCOC(=O)c1c(NC(=O)C2C3C=CC(CC3)C2C(=O)O)sc(C)c1C (stereo not drawn)	ClpP mod 28.2µM
Cc1noc(C)c1C(=O)OCC(=O)N(C)C1CCS(=O)(=O)C1 (stereo not drawn)	none (no result: ClpP mod)
COC(=O)c1cc(C)sc1NC(=O)C1C2C=CC(CC2)C1C(=O)O (stereo not drawn)	none
CCOC(=O)c1c(NC(=O)C2C3CCC(O3)C2C(=O)O)sc2c1CCC(CC)C2 (stereo not drawn)	Nrf2 inh inconclusive (no result: ClpP mod)
CCOC(=O)c1c(NC(=O)C2C3C=CC(C3)C2C(=O)O)sc2c1CCC(CC)C2 (stereo not drawn)	ClpP mod 25.1µM, Nrf2 inh inconclusive
COCc1nc(-c2ccc(-c3ccccc3)nc2OC)no1	ClpP mod inconclusive, Nrf2 inh inconclusive
CCOc1nc(-c2ccccc2)ccc1-c1noc(COC)n1	ClpP mod 35.5µM, Nrf2 inh inconclusive, A549 tox inconclusive
CCOc1ncccc1-c1nc(-c2cccs2)no1	Nrf2 ARE act 10µM, Nrf2 inh inconclusive
COc1ccc(-c2nc(-c3cccs3)no2)cc1	Nrf2 inh inconclusive (no result: ClpP mod)
CCOc1nc(-c2ccccc2)ccc1-c1noc(-c2cccs2)n1	Nrf2 ARE act inconclusive, ClpP mod 25.1µM, Nrf2 inh inconclusive, A549 tox inconclusive
Cc1cccc(Cn2c(O)c(N=NC(=S)Nc3ccccc3F)c3ccccc32)c1	Nrf2 inh 5.8µM, A549 tox inconclusive
Cc1ccc2c(c1)c(N=NC(N)=S)c(O)n2Cc1ccccc1	ClpP mod 25.1µM
NC(=S)N=Nc1c(O)n(Cc2ccc(F)cc2)c2ccccc12	none
CCN1CCN(C(=O)CCN(CC(C)C)c2nc(-c3cccs3)nc3ccccc23)CC1	none (no result: Nrf2 ARE act, IL-2 act, miR-21 reporter, ClpP mod)
CC(C)c1ccc(NC(=O)CCn2c(=O)c3cccn3c3ccccc32)cc1	Nrf2 inh 10.3µM (no result: IL-2 act)
Cc1ccnc2ccc(I)cc12	none (no result: Nrf2 ARE act, IL-2 act, miR-21 reporter, Nrf2 inh, A549 tox)
Cc1cc2c(s1)c1cnn(Cc3c(C)cc(F)cc3C)c(=O)c1n2C	none (no result: Nrf2 ARE act, IL-2 act, miR-21 reporter, ClpP mod)
COc1cc(NC(=S)NCCC(c2ccccc2)c2ccccc2)cc(OC)c1	Nrf2 inh 23.1µM, A549 tox inconclusive (no result: ClpP mod)
Cc1cc(Cl)ccc1NC(=S)NCCC(c1ccccc1)c1ccccc1	Nrf2 inh 15.8µM, A549 tox inconclusive
Nc1c(Br)cc(/C=C2\C=Cc3ccccc32)cc1Br	none (no result: Nrf2 ARE act, IL-2 act, miR-21 reporter, Nrf2 inh, A549 tox)
Cc1cccc(C(=O)Nc2nnc(S(=O)(=O)N(C)c3ccccc3C)s2)c1	Nrf2 inh inconclusive (no result: IL-2 act)
O=C(CSc1ccc2c(c1)OCCO2)Nc1ccc(Br)cc1	Nrf2 inh 23.1µM
CCOCCCNC(=O)C1CCN(c2cc(C)nc3c(-c4ccc(Cl)cc4)c(C)nn23)CC1	none (no result: IL-2 act)
CCC(NC(=O)c1ccccc1O)c1ccccc1 (stereo not drawn)	ClpP mod 31.6µM (no result: Nrf2 inh)
CCC(NC(=O)c1ccc([N+](=O)[O-])cc1[N+](=O)[O-])c1ccccc1 (stereo not drawn)	none
CSC1=N/C(=C\c2ccccc2)C(=O)N1C	Nrf2 ARE act 11.2µM
CSC1=N/C(=C\c2cccnc2)C(=O)N1c1ccccc1	none
COC(=O)c1ccc(Cl)cc1NC(=O)N(Cc1ccc(OC)cc1)C1CCN(C(C)=O)CC1	none (no result: IL-2 act)
OC(c1cccc(Cl)c1)c1nc(/C=C/c2ccc(C(F)(F)F)cc2)cs1 (stereo not drawn)	ClpP mod inconclusive (no result: miR-21 reporter, Nrf2 inh, A549 tox)
COc1cccc(C(O)c2nc(/C=C/c3ccc(C(F)(F)F)cc3)cs2)c1 (stereo not drawn)	ClpP mod 28.2µM (no result: miR-21 reporter, Nrf2 inh, A549 tox)
Cc1cccc(N=c2oc3cc(O)ccc3cc2C(N)=O)c1	ClpP mod 28.2µM, Nrf2 inh inconclusive
COc1ccccc1N=c1oc2cc(O)ccc2cc1C(N)=O	Nrf2 inh inconclusive
COC(=O)c1cccc(S(=O)(=O)N(Cc2ccco2)Cc2cc3cc(OC)c(OC)cc3[nH]c2=O)c1	ClpP mod 28.2µM
CSc1ccc(C(=O)C2CCCN(S(=O)(=O)c3c(C)noc3C)C2)cc1 (stereo not drawn)	Nrf2 inh 13µM
COc1ccc(OC)c(C2C(C(=O)Nc3ccccc3OC)=C(C)Nc3c(C(=O)Nc4ccc(F)cc4)cnn32)c1 (stereo not drawn)	ClpP mod inconclusive (no result: IL-2 act)
O=c1c2ccccc2oc2ccc(-c3ccoc3)cc12	none (no result: Nrf2 ARE act, IL-2 act, miR-21 reporter, Nrf2 inh, A549 tox)
Cc1cc(C(=O)Nc2sc3c(c2C#N)CCC(C)C3)cs1 (stereo not drawn)	ClpP mod 25.1µM, Nrf2 inh inconclusive
CC(=O)Nc1sc2c(c1C#N)CCC(C)C2 (stereo not drawn)	none (no result: ClpP mod)
COc1ccc(C2c3ccccc3Oc3ncn(CCN4CCOCC4)c(=N)c32)cc1OC (stereo not drawn)	Nrf2 inh inconclusive (no result: Nrf2 ARE act, IL-2 act, miR-21 reporter, ClpP mod)
CCN(CC)c1ccc(C=C(c2nnnn2-c2ccccc2)c2nnnn2-c2ccccc2)cc1	ClpP mod 28.2µM
Cn1c(/C=C/c2ccc(Br)cc2)c([N+](=O)[O-])c(=O)n(C)c1=O	Nrf2 inh 20.6µM, A549 tox inconclusive
CN(C)c1ccc(/C=C/c2c([N+](=O)[O-])c(=O)n(C)c(=O)n2C)cc1	A549 tox inconclusive
Cc1ccccc1-c1noc(N)c1C#N	Nrf2 ARE act 17.8µM
Cc1ccccc1CSc1nnc2[nH]c(=O)cc(-c3ccccc3)n12	none (no result: IL-2 act, Nrf2 inh)
CC(OC(=O)c1cccn1C)C(=O)Nc1ccc2c(c1)OCO2 (stereo not drawn)	Nrf2 inh 25.9µM (no result: ClpP mod)
O=C(OCc1ccc(F)cc1)c1ccc2c(c1)-c1ccccc1C2=O	none
CCOC(=O)C1=C(Cc2ccc(F)cc2)C(=O)c2ccccc2C1=O	miR-21 reporter inconclusive, A549 tox 16.4µM (no result: Nrf2 inh)
COc1cc(OC)c(C(=O)Nc2cccc(C(C)=O)c2)cc1OC	ClpP mod 15.8µM (no result: Nrf2 inh)
C=Cc1ccc(CSc2nc(-c3ccc(Cl)cc3)nc3c2Cc2c(CO)cnc(C)c2O3)cc1	Nrf2 inh inconclusive (no result: IL-2 act)
CCN(CC)c1nn2c(=O)c(C(=O)NCCc3ccccc3C)cnc2s1	ClpP mod 3.98µM, Nrf2 inh inconclusive (no result: IL-2 act)
CCOc1ccccc1CNC(=O)c1cnc2sc(N(CC)CC)nn2c1=O	ClpP mod 8.91µM, Nrf2 inh inconclusive (no result: IL-2 act)
CCOc1ccc(CCNC(=O)c2cnc3sc(N(CC)CC)nn3c2=O)cc1OCC	ClpP mod inconclusive (no result: IL-2 act)
CCN(CC)c1nn2c(=O)c(C(=O)NCCc3ccc(C)cc3)cnc2s1	ClpP mod 15.8µM (no result: IL-2 act)

From PubChem
